Apparent affinities of Ab-14 variants for a coronavirus HR2 peptide

Data: MIT Lincoln Laboratory AlphaSeq set, Engelhart et al. 2022, doi:10.1038/s41597-022-01779-4, as distributed in FLAb.

Target: peptide PDVDLGDISGINAS, taken from heptad repeat 2 (HR2) of SARS-CoV-2 spike.

Parent scFv Ab-14: VH joined to VL by the linker GGGGSGGGGSGGGGS. Changes lie in the light chain CDRs alone.
VH: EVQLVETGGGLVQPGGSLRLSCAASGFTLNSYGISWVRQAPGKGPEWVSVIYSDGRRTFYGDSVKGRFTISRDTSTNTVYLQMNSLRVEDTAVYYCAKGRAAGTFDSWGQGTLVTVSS
VL: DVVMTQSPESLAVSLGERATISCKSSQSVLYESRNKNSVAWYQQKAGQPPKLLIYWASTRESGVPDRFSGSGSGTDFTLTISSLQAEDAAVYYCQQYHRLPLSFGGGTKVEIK

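AAYL50 was designed without a model: most single CDR substitutions and a random sample of double and triple ones. The scFvs were displayed on barcoded MATa yeast, the peptide on MATalpha yeast. The frequency of each diploid, read from paired DNA barcodes, reflects how well the two displayed proteins bind. Scores were corrected for input abundance and mapped to Kd with protein pairs of known affinity run in the same pool. The assay was run in three technical replicates.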

Positions count from residue 1 of the parent VL; R34L puts L in place of R.
All variants listed here change E61 of the VL, counted from its first residue.
Values are apparent Kd, the geometric mean of the replicates that gave a signal; lower means stronger binding.
An entry "nd" has no value in the source: the pair was not observed among the diploids in any replicate. This suggests poor binding but is not conclusive.
In this assay the parent's reference entry averaged 4.4 nM; its copy inside this library read 48 nM.
Background: pairings of library AAYL50 with three empty control strains gave a value in 18% of cases (median 15 µM, 5th percentile 970 nM). Values in that range, when seen in few replicates, are hard to tell from nonspecific mating. The control count says in how many pairings with the empty strains this scFv gave a signal.

With R34L/E61C/H98T the result was 6.4 nM (3 of 3 replicates; controls 2 of 9).
With S38T/E61V/H98T the result was 51 nM (3 of 3 replicates; controls 0 of 9).
With Q27I/S38Q/E61N the result was 1.5 µM (3 of 3 replicates; controls 0 of 9).
With E32T/E61I/H98R the result was nd (0 of 3 replicates; controls 1 of 9).
With E61W the result was nd (0 of 3 replicates; controls 0 of 9).
With K24T/E61M/S62L the result was 35 nM (3 of 3 replicates; controls 0 of 9).
With E61A/Q95H the result was nd (0 of 3 replicates; controls 0 of 9).
With K36S/E61W/Q95S the result was 290 nM (1 of 3 replicates; controls 0 of 9).
With S58V/R60F/E61I the result was nd (0 of 3 replicates; controls 0 of 9).
With Q27H/R60F/E61W the result was nd (0 of 3 replicates; controls 0 of 9).
With Q27F/S58V/E61Y the result was 160 nM (3 of 3 replicates; controls 0 of 9).
With V29Q/E61L/Q95M the result was 10 nM (3 of 3 replicates; controls 0 of 9).
With A57M/E61M the result was 18 µM (1 of 3 replicates; controls 1 of 9).
With V39F/E61L/H98R the result was 5.9 µM (1 of 3 replicates; controls 0 of 9).
With W56G/E61V the result was 4.3 nM (3 of 3 replicates; controls 0 of 9).
With N35R/A57H/E61K the result was 160 µM (2 of 3 replicates; controls 2 of 9).
With K36P/E61V/L102W the result was 5.5 nM (3 of 3 replicates; controls 7 of 9).
With S28P/E61P/L100G the result was 13 µM (1 of 3 replicates; controls 1 of 9).
With A40E/R60H/E61L the result was 9.7 µM (1 of 3 replicates; controls 4 of 9).
With Q27M/A57K/E61H the result was 9.9 µM (3 of 3 replicates; controls 6 of 9).
With R34P/T59N/E61C the result was 6.5 nM (3 of 3 replicates; controls 1 of 9).
With E61I/S103N the result was 150 nM (3 of 3 replicates; controls 1 of 9).
With R60Q/E61Q the result was nd (0 of 3 replicates; controls 0 of 9).
With Y31A/K36I/E61R the result was 30 nM (3 of 3 replicates; controls 0 of 9).
With N35Q/E61F the result was 15 nM (3 of 3 replicates; controls 1 of 9).
With N37T/S38P/E61Y the result was 130 nM (3 of 3 replicates; controls 4 of 9).
With E61A/Q95K/H98A the result was 4.8 nM (3 of 3 replicates; controls 3 of 9).
With V29I/A40P/E61H the result was 13 µM (1 of 3 replicates; controls 5 of 9).
With E61W/H98E/S103H the result was 2.2 µM (3 of 3 replicates; controls 5 of 9).
With S33H/E61V/S103Y the result was nd (0 of 3 replicates; controls 0 of 9).
With K24Q/E32I/E61T the result was nd (0 of 3 replicates; controls 0 of 9).
With K24E/E32Q/E61F the result was 2.9 nM (3 of 3 replicates; controls 2 of 9).
With T59M/E61Q/Y97K the result was 3.5 µM (1 of 3 replicates; controls 2 of 9).
With R34G/V39K/E61C the result was 15 µM (2 of 3 replicates; controls 2 of 9).
With S25W/N37V/E61H the result was 190 nM (2 of 3 replicates; controls 0 of 9).
With K24R/E61S/Q96C the result was 3.3 µM (1 of 3 replicates; controls 0 of 9).
With S25C/E61A/S62C the result was 8.3 nM (3 of 3 replicates; controls 1 of 9).
With Y31M/V39M/E61Q the result was 28 nM (3 of 3 replicates; controls 1 of 9).